{"source": "patent EP0434750B1", "about": "(priority 1988, dated 1990)", "key": {"[1]": {"system": "monkeys (Macaca fascicularis)", "test": "Dopamine and homovanillic acid levels in monkey brain samples (HPLC)", "type": "in vivo", "text": "(§1) Four animals are naive controls. […] TABLE 3"}, "[2]": {"system": "Tyrosine hydroxylase (TH)", "test": "Tyrosine hydroxylase activity in monkey brain homogenate (tritium release method)", "type": "in vivo, Macaca fascicularis", "conditions": "MPTP alone; monkeys M1-3", "text": "as §1"}, "[3]": {"conditions": "monkeys receiving MPTP alone, caudate and putamen"}}, "note": "“And” between values parts separate entries of the source, which are not always exact repeats. Equal entries are not always repeated.", "data": [{"smiles": "CN1CC=C(c2ccccc2)CC1", "note": "[MPTP, 1-Methyl-4-phenyl-1,2,5,6-tetrahydropyridine]", "values": [{"measurement": "CAUDATE DA", "setting": "[1]; MPTP alone, monkeys M1-3", "value": "0.6 nmol per g tissue and 0.9 nmol per g tissue"}, {"measurement": "PUTAMEN DA", "setting": "[1]; MPTP alone, monkeys M1-3", "value": "1.2 nmol per g tissue and 1.4 nmol per g tissue and 1.8 nmol per g tissue"}, {"measurement": "Dopamine depleted to % of control", "setting": "[1]; [3]", "value": "about 1 % of control"}, {"measurement": "HVA % of control", "setting": "[1]; [3]", "value": "about 10 % of control"}, {"measurement": "PUTAMEN TH (% control)", "setting": "[2]", "value": "11.8 % control and 10.8 % control and 21.0 % control"}]}]}
